For one substance, EC50 (C of the 4-parameter fit), IL-2 in the supernatant of Jurkat T cells with anti-CD3, Raji cells and 100 ng/mL CTLA4-Fc and EC50 results are on record in patent US20190315864A1.

Chains of the proteins cited; added tags and fusions are not shown. A line that says so, or that is headed by a name, gives the form on record, which may keep a tag or linker.
CTLA4-Fc fusion protein (human), one chain, as listed by the source limits assumed: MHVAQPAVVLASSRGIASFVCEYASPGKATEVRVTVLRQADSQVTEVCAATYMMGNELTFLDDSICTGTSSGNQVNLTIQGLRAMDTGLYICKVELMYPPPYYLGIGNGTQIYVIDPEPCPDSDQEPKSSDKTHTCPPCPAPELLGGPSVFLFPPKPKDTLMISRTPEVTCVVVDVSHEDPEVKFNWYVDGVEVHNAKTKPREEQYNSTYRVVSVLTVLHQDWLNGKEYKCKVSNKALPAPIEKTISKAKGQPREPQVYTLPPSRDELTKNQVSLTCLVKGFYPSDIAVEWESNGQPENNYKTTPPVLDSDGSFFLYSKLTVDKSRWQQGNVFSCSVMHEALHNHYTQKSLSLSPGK

Assay [1] deals with CTLA4-Fc fusion protein (human).
For assay [2] the target is unchanged. The experiment in a line: ELISA: plate coated with the antibody at 0.5 µg/well, CTLA4-Fc-Biotin titrated, SA-HRP, OD405; value is C of the 4-parameter fit in the table under the plot; x axis has no unit on the sheet, ng/mL by paragraph 218. In general terms: In an ELISA, binding on a coated surface is turned into a signal by an enzyme label.

With “10D1 (anti-CTLA4 antibody ipilimumab from BMS, made in house)”, the EC50 (C of the 4-parameter fit), IL-2 in the supernatant of Jurkat T cells with anti-CD3, Raji cells and 100 ng/mL CTLA4-Fc in assay [1] is 0.0125 mg/L. Moreover, in assay [2], the 50% effective concentration (EC50) (in general, the midpoint of the concentration-response curve) was 0.0467 mg/L.
